Literature values in patent US20210137911A1, “NOVEL CHRONOTHERAPY BASED ON CIRCADIAN RHYTHMS” (THE TRUSTEES OF THE UNIVERSITY OF PENNSYLVANIA, priority 2014, published 2021).

Conditions: in vivo

B1: Ibritumomab (antibody, chains of the INN, looked up)
heavy: QAYLQQSGAELVRPGASVKMSCKASGYTFTSYNMHWVKQTPRQGLEWIGAIYPGNGDTSYNQKFKGKATLTVDKSSSTAYMQLSSLTSEDSAVYFCARVVYYSNSYWYFDVWGTGTTVTVSAPSVYPLAPVCGDTTGSSVTLGCLVKGYFPEPVTLTWNSGSLSSGVHTFPAVLQSDLYTLSSSVTVTSSTWPSQSITCNVAHPASSTKVDKKIEPRGPTIKPCPPCKCPAPNLLGGPSVFIFPPKIKDVLMISLSPIVTCVVVDVSEDDPDVQISWFVNNVEVHTAQTQTHREDYNSTLRVVSALPIQHQDWMSGKEFKCKVNNKDLPAPIERTISKPKGSVRAPQVYVLPPPEEEMTKKQVTLTCMVTDFMPEDIYVEWTNNGKTELNYKNTEPVLDSDGSYFMYSKLRVEKKNWVERNSYSCSVVHEGLHNHHTTKSFSR
light: QIVLSQSPAILSASPGEKVTMTCRASSSVSYMHWYQQKPGSSPKPWIYAPSNLASGVPARFSGSGSGTSYSLTISRVEAEDAATYYCQQWSFNPPTFGAGTKLELKRADAAPTVFIFPPSDEQLKSGTASVVCLLNNFYPREAKVQWKVDNALQSGNSQESVTEQDSKDSTYSLSSTLTLSKADYEKHKVYACEVTHQGLSSPVTKSFN
  ½ Life: 0.8 h
